Amino acid sequences for entries named in this document (tags omitted). Residues count along the entry.
UniProt P22303, 32-617 isoform P22303-2 limits assumed: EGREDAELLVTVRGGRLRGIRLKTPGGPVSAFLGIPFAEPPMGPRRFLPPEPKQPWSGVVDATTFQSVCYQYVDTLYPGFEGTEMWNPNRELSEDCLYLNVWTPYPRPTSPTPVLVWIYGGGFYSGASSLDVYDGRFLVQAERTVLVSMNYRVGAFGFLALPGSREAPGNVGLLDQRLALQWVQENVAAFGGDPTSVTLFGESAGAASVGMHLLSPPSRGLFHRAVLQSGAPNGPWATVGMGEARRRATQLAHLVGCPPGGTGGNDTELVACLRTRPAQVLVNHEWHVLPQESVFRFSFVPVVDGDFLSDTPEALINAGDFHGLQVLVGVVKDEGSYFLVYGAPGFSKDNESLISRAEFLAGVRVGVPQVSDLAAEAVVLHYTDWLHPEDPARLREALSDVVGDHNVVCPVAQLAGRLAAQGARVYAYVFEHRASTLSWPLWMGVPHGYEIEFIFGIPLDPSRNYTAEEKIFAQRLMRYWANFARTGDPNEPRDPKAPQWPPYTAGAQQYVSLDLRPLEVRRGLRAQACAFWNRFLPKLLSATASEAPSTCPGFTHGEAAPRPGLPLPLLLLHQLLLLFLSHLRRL

According to paper PMC8123621, “Development of Novel Potential Pleiotropic Compounds of Interest in Alzheimer’s Disease Treatment through Rigidification Strategy” (Molecules, 2021):

Molecular target: T1, hAChE (AChE from human erythrocytes) (Homo sapiens, UniProt P22303)
T1 construct: AChE from human erythrocytes; purchased Sigma Aldrich; host or cells: human erythrocytes (tissue-derived enzyme)
Assay type: biochemical
Conditions: mean ± SEM of three experiments; read-out: hAChE IC50 (nM) (n = 3)
Procedure: The inhibitory activity of novel analogs towards hAChE was evaluated according to the Ellman test.
Inhibitory capacity of compounds on AChE biological activity was evaluated through the use of the spectrometric method of Ellman. Acetylthiocholine iodide and 5,5-dithiobis-(2-nitrobenzoic) acid (DTNB) were purchased from Sigma Aldrich. AChE from human erythrocytes (buffered aqueous solution, ≥500 units/mg protein (BCA), Sigma Aldrich) was diluted in 20 mM HEPES buffer pH 8, 0.1% Triton X-100 such as to have enzyme solution with 0.25 unit/mL enzyme activity. In the procedure, 100 μL of 0.3 mM DTNB dissolved in phosphate buffer pH 7.4 were added into the 96 wells plate followed by 50 μL of test compound solution and 50 μL of enzyme ([…]). After 5 min of preincubation at 25 °C, the reaction was then initiated by the injection of 50 μL of 1 mM acetylthiocholine iodide solution. […] Assays were performed with a blank containing all components except acetylthiocholine, in order to account for non-enzymatic reaction. The reaction slopes were compared and the percent inhibition due to the presence of test compounds was calculated by the following expression: 100 − (vi/v0 × 100) where vi is the rate calculated in the presence of inhibitor and v0 is the enzyme activity.

COc1cc(N)c(Cl)cc1C(=O)CCC1CCN(CC2CCCCC2)CC1 [Donecopride, donecopride, reference compound]
IC50: 16 ± 5 nM
